From patent publication US20240307362A1 (priority 2019, published 2024)

tested on: Ba/F3-EGFR-insSVD; assay: Ba/F3 cell survival assay, EGFR-insSVD; assay type: cell-based; details: read-out: BA/F3 (insSVD) IC50; Table 5, compounds of WO 2016/120196
Description: 293T cells from ATCC were transfected with pBABEpuro expression constructs for WT EGFR or EGFR-insSVD and pCL-Eco packaging vector using Fugene-6 transfection reagent from Promega. Plates were incubated at 37° C. for 48 h. Retrovirus was harvested by filtering the media supernatant through a 0.45 μm filter.
Ba/F3 cells purchased from DSMZ were grown in RPMI+10% FBS+10 ng/mL IL-3 and infected with filtered retroviral supernatant at a 1:2 dilution. Polybrene was added to a concentration of 8 μg/mL, plates were spun for 90 min, and incubated overnight at 37° C. 2 μg/mL puromycin was added to the infected cells 24 h after infection and cells were continually grown in the presence of puromycin and 10 ng/mL IL-3. Following stably expressing Ba/F3 cell lines were generated: Ba/F3-EGFR-WT, Ba/F3-EGFR-insSVD, (Ba/F3-vector-control).
For cell survival assays, Ba/F3 cells were grown to a density of 1-2 million cells per mL, spun down and resuspended in media without IL-3, and replated at a concentration 200,000-500,000 cells per mL. The cells ectopically expressing WT EGFR or EGFR-insSVD were plated with 10 ng/mL Millipore Culture grade EGF. The cells ectopically expressing pBABEpuro empty vector were plated with 10 ng/mL IL-3.
2 days later, cells were plated in 50 μL in a 384 well plate at a concentration of 4000 cells per well for cells assayed in the absence of IL-3 and 2000 cells per well for cells assayed in the presence of IL-3. 100 nL of compound was added to each well using a 100 nL pin head, and plates were incubated at 37° C. for 48 h.
Cell viability was measured by adding 20 μL of Cell Titer-Glo Luminescent Cell Viability Reagent diluted 1:3 in PBS. Plates were sealed with Perkin Elmer Top-Seal, inverted several times to mix, and immediately centrifuged at 1000 rpm for 2 min. Plates were incubated in low light conditions for 8-10 min and luminescence was measured.

Question: `COCCOc1cnccc1-c1[nH]c2c(c1Nc1ccc(F)c(F)c1)C(=O)NCC2` was tested. Which IC50 did it give?
Answer: > 2 µM

Question: `O=C1NCCc2[nH]c(-c3ccncc3OCC(F)F)c(Nc3cccc(F)c3)c21` was tested. Which IC50 did it give?
Answer: > 2 µM

Question: Which IC50 does the source give for `O=C1NCCc2[nH]c(-c3ccncc3OCC3CC3)c(Nc3ccc(F)cc3)c21` here?
Answer: > 2 µM
